This is an account of results in PMC3326565 (2011).

This experiment has as its target T1, human CD64, soluble monomeric extracellular domain (human, UniProt P12314 16-292).
T1 chain: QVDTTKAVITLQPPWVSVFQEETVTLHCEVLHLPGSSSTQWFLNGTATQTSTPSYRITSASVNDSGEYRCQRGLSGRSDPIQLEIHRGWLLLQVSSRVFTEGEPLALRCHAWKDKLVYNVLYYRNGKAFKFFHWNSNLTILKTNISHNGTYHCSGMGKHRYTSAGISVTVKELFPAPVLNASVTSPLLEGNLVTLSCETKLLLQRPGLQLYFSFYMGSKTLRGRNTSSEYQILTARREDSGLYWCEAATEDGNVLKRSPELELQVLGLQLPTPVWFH
Description: SPR. (Surface plasmon resonance follows binding to a sensor surface in real time, without labels.)

Numbering of substitutions follows the chain as printed.

B1: ch4D5 (chimeric anti-HER2 monoclonal antibody, wild-type human IgG1 Fc domain) (antibody)
chain 1: QVQLQQSGPELVKPGASLKLSCTASGFNIKDTYIHWVKQRPEQGLEWIGRIYPTNGYTRYDPKFQDKATITADTSSNTAYLQVSRLTSEDTAVYYCSRWGGDGFYAMDYWGQGASVTVSS
chain 2: DIVMTQSHKFMSTSVGDRVSITCKASQDVNTAVAWYQQKPGHSPKLLIYSASFRYTGVPDRFTGNRSGTDFTFTISSVQAADLAVYYCQQHYTTPPTFGGGTKLEIK
With B1, the Kd – broadly, the concentration at which binding is half-saturated – is 0.5 nM.

B2: ch4D5-0264 (chimeric anti-HER2 monoclonal antibody that contains the optimized Fc domain MGFc0264) (antibody)
chain 1: B1 chain 1
chain 2: B1 chain 2 with N65S, A81E, L104V
The molecule B2 yielded a Kd of 1.2 nM.
